{"source": "paper PMC6395531", "about": "(2019)", "test_system": "tester strains TA98, TA100, TA1535, TA97a, WP2 uvrA and TA1537", "conditions": "with or without S9; monotartaric salts", "data": [{"smiles": "CCc1cc(F)c2nc(N3CCC(NC4CCOCC4)CC3)c(-c3nc(C)no3)c(C)c2c1", "note": "[Compound 58, 1-(6-ethyl-8-fluoro-4-methyl-3-(3-methyl-1,2,4-oxadiazol-5-yl)quinolin-2-yl)-N-(tetrahydro-2H-pyran-4-yl)piperidin-4-amine]", "values": [{"measurement": "mutagenicity in the Ames assays", "result": "Neither analog showed mutagenicity in the Ames assays, with or without the addition of S9"}]}]}
